Experimental data published in patent US12551478B2, “Quinoline derivative having indoleamine-2,3-dioxygenase inhibitory activity” (SHENZHEN CHIPSCREEN BIOSCIENCES CO., LTD., priority 2018, dated 2026).

Amino acid sequences for entries named in this document (tags omitted).
UniProt Q12809, whole entry: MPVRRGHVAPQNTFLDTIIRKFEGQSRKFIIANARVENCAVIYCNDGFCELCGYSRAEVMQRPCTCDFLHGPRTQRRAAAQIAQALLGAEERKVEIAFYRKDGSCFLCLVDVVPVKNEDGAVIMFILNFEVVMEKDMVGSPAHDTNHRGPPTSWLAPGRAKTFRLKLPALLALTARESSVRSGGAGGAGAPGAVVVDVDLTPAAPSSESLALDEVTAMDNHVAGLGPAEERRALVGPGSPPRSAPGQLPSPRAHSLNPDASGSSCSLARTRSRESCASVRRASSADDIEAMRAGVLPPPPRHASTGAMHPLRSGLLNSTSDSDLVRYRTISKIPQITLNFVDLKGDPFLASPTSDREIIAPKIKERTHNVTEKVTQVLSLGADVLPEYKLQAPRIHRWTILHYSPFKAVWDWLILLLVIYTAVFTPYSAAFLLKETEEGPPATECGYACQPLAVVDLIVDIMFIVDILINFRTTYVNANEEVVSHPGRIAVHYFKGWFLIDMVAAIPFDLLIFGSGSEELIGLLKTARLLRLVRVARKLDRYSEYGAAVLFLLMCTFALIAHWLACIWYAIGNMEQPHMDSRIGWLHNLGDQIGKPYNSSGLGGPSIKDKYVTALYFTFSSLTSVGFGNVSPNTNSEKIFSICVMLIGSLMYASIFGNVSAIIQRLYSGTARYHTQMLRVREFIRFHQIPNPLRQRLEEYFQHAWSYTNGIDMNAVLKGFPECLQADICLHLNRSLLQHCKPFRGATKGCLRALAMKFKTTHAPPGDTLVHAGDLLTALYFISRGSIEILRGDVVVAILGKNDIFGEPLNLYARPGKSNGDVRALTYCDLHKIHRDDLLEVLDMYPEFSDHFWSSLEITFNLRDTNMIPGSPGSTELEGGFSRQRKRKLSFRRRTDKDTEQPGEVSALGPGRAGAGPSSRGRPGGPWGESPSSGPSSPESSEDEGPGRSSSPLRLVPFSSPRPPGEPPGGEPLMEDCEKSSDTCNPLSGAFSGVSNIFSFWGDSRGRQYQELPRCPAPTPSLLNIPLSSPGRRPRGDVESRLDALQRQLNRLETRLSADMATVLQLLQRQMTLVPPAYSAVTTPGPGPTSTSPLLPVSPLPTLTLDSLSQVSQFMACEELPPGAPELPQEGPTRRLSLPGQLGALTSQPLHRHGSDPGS

Molecular target: hERG potassium channel (Homo sapiens, UniProt Q12809)
Assay: hERG inhibitory activity assay (patch clamp method), HEK293 cells stably expressing hERG
Conditions: read-out: hERG inhibition EC50 value; whole-cell patch clamp, HEK293, 0.3-30 μM, room temperature
Text: Non-cardiac drugs may cause the prolongation of myocardial action potential duration by inhibiting the hERG (IKr) channel, increasing the possibility of life-threatening torsade de pointes (TdP) ventricular arrhythmia. In this experiment, HEK293 cell line without endogenous IKr current was used as host cell (this cell line was widely used in the detection of hERG) to evaluate the cardiotoxicity of Example 85 in patent CN108203438A and Example 87 of the present application.
(1) HEK293 cell line stably expressing hERG potassium channel was cultured in DMEM medium containing 10% fetal bovine serum and 0.8 mg/mL G418 under the condition of 37° C. and 5% CO2. […]
A capillary glass tube was drawn into a recording electrode with a microelectrode puller. […] Then, slow capacitance compensation was performed, and the membrane capacitance and series resistance were recorded. […]
When the hERG current of the whole-cell recording was stabilized, the drug was administered. […] The current detected for each cell in the compound-free extracellular fluid was used as its own control group. […]
[formula] and then the inhibition rate corresponding to each concentration was calculated
[formula] For each concentration, mean number and standard error were calculated, and the following equation was used to calculate the half inhibitory concentration of each compound: […]

SMILES: O=C(CNc1ccccc1)N1CCC(C(O)CC2c3ccccc3-c3cncn32)CC1 (stereo not shown)
- EC50: 1900 nM
